Assay results from ChEMBL document CHEMBL1275556, “High prevalence of plasmid-mediated quinolone resistance genes qnr and aac(6')-Ib-cr in clinical isolates of Enterobacteriaceae from nine teaching hospitals in China” (2008).

How the values were obtained:
Citrobacter freundii = details: PU55T
Escherichia coli [1] = details: J53
Escherichia coli [2] = details: FJ3T
Klebsiella pneumoniae = details: GZ40T

Measured: MIC

GENTAMICIN
0.5 µg/mL: Citrobacter freundii | Escherichia coli [1] | Escherichia coli [2] | Klebsiella pneumoniae
